Sequences of proteins named here, by UniProt entry; tags and fusion partners are left off. Residues count along the entry.
UniProt P41594, 21-1180 isoform 2 limits assumed: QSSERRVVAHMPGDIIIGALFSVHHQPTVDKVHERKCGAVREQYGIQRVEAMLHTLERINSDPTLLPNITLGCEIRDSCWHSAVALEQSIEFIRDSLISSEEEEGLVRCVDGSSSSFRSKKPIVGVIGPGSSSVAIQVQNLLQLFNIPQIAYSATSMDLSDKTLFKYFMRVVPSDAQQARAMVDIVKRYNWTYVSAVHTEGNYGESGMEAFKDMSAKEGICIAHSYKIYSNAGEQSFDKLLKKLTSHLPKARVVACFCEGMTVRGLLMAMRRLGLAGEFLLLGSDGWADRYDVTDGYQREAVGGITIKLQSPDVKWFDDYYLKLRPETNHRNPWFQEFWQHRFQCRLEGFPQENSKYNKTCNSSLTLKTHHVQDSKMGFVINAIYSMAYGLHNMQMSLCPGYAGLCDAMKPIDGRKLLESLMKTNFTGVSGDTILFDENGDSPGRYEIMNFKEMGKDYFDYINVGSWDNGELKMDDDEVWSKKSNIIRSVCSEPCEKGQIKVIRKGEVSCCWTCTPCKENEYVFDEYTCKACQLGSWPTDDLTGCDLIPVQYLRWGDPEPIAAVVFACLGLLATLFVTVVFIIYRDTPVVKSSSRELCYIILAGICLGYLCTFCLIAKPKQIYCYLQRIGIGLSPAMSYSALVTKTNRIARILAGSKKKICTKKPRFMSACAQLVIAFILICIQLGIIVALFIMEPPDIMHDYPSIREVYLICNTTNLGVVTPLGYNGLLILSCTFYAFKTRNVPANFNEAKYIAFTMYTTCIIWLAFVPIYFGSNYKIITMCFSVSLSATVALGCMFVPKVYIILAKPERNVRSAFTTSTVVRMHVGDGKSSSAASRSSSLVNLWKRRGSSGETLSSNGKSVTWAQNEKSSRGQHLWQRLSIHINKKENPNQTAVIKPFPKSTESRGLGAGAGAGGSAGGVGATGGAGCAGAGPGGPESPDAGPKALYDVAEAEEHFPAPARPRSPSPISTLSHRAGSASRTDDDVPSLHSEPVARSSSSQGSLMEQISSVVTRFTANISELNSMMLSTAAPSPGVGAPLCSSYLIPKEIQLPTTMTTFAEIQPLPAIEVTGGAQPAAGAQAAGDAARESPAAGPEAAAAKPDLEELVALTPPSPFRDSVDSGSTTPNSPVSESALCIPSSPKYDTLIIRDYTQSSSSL

In patent publication US9029366B2, “Substituted bicyclic alkoxy pyrazole analogs as allosteric modulators of mGluR5 receptors” (Vanderbilt University, priority 2012, dated 2015):

Target: human mGluR5 (Homo sapiens, UniProt P41594)
Experiment: Cell-based functional Ca2+ mobilization assay (FDSS), potentiation of glutamate EC20 response, HEK293A cells transfected with human mGluR5a (H10H or H12H cell line)
Details: H10H cell line expressing recombinant human mGluR5, in presence of glutamate EC20, ** = compound is an antagonist; for Emax (%): % of maximal glutamate response

SMILES	Emax (%)	pEC50
O=C(c1ccc(F)cc1)N1CCCn2nc(OCc3ccccc3)cc2C1	66%	6.76
O=C(c1ccc(F)cc1)N1CCn2nc(OCc3cccnc3)cc2C1	43%	<5.00
CC1CN(C(=O)c2ccc(F)cc2)Cc2cc(OCc3ccccc3)nn21 (stereo not shown)	60%	6.64
O=C(c1cccc(F)c1)N1CCn2nc(OCc3ccc(F)cc3)cc2C1	41%	6.3
N#Cc1ccc(COc2cc3n(n2)CCN(C(=O)c2cccc(F)c2)C3)cc1	28%	<4.52
O=C(c1cccc(F)c1)N1CCn2nc(OCc3cccc(F)c3)cc2C1	55.5%	6.8
N#Cc1cccc(COc2cc3n(n2)CCN(C(=O)c2cc(F)ccc2F)C3)c1	66%	7.09
N#Cc1ccc(COc2cc3n(n2)CCN(C(=O)c2ccc(F)cc2)C3)cc1	58%	6.06
N#Cc1cccc(COc2cc3n(n2)CCN(C(=O)c2ccccc2F)C3)c1	48%	6.91
O=C(c1ccc(F)cc1)N1CCCn2nc(OCc3cccc(F)c3)cc2C1	69%	6.69
O=C(c1cccc(F)c1)N1CCn2nc(OCc3ccccc3F)cc2C1	64%	6.61

Now from value to compound:

Emax (%)	pEC50	SMILES
48.5%	5.33	O=C(c1ncccc1F)N1CCn2nc(OCc3ccccc3)cc2C1
59%	6.66	O=C(c1c(F)cccc1F)N1CCn2nc(OCc3ccccc3)cc2C1
71%	6.76	O=C(C1CC2CCC1C2)N1CCn2nc(OCc3ccccc3)cc2C1 (stereo not shown)
71.5%	6.84	O=C(c1ccccc1F)N1CCn2nc(OCc3ccccc3)cc2C1
47%	6.71	O=C(C1CCCC1)N1CCn2nc(OCc3ccccc3)cc2C1
11%	<4.52	COc1nccnc1C(=O)N1CCn2nc(OCc3ccccc3)cc2C1
31%	<5.00	O=C(COCC(F)(F)F)N1CCn2nc(OCc3ccccc3)cc2C1
10** %	< 4.52 ··	O=C(C1CC1)N1CCn2nc(OCc3ccccc3)cc2C1
61%	5.00	O=C(c1ccc(F)nc1)N1CCn2nc(OCc3ccccc3)cc2C1
